These results are taken from US20100028995A1 (ANAPHORE, published 2010).

In the test the target is T1, mouse IL1-R1/Fc (mouse, UniProt P13504 20-338, limits assumed).
T1 construct: Coupled to CM5 sensor chips for Biacore 3000; also called IL-1 Receptor 1; IL-1RI protein; not shown: Fc part
T1 sequence (looked up): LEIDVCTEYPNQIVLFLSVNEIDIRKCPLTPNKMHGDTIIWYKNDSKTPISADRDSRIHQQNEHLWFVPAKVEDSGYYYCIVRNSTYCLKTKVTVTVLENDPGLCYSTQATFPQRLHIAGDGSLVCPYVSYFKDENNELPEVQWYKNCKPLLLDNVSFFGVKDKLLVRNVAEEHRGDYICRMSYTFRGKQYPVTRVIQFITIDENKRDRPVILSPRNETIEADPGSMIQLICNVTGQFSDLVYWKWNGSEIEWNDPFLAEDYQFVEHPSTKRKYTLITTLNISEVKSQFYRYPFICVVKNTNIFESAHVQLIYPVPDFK
Nature of the test: SPR (Biacore 3000); mouse IL1-R1/Fc coupled to a CM5 chip; analyte is uncleaved CII-H6-GrB-TripK-IL-1ra refolded by dialysis; analyte concentration not given. As to the method:
The ability of the refolded protein to bind to IL-1 Receptor 1 was analyzed on a Biacore 3000 (Biacore, Uppsala, Sweden) where mouse IL1-R1/Fc was coupled to CM5 sensor chips and binding of soluble TripK-IL-1ra to IL-1RI protein was measured. Results of uncleaved CII-H6-GrB-TripK-IL-1ra refolding by dialysis are shown in FIG. 2 and uncleaved CII-H6-GrB-TripK-IL-1ra on-column NiNTA refolding is shown in FIG. 3. The cleavage and purification assays produced the trimeric IL-1Ra compounds of SEQ ID NOs: 47-54.

B1: CII-H6-GrB-GG-TripK-IL-1ra (ligand)
chain: MVRANKRNEALRIESALLNKIAMLGTEKTAEGGSHHHHHHGSIEPDGGEGPTQKPKKIVNAKKDVVNTKMFEELKSRLDTLAQEVALLKEQQALQTVSLKRPSGRKSSKMQAFRIWDVNQKTFYLRNNQLVAGYLQGPNVNLEEKIDVVPIEPHALFLGIHGGKMCLSCVKSGDETRLQLEAVNITDLSENRKQDKRFAFIRSDSGPTTSFESAACPGWFLCTAMEADQPVSLTNMPDEGVMVTKFYFQEDE
notes: also called CII-H6-GrB-TripK-IL-1ra; CII-H6-GrB-TripK-IL-1Ra
As to B1, the binding result is recorded as “binds”.
